Measurements reported in ChEMBL document CHEMBL5727895, “Nitrogen-containing heteroaryl compound and pharmaceutical use thereof” (2020).

Assay: Evaluation of GLUT9 Inhibitory Activity: Uricase/Hyper transiently-transfected human GLUT9 stably expressing cells or mock cells (blank) were seeded in a 96 well plate (Corning) at 1.6×10^5 cells/well, and cultured overnight at 37° C., 5% CO2. D-MEM/high glucose (Wako Pure Chemical Industries, Ltd.) containing 10% Fetal Bovine Serum (Lifetechnology) and 100 units/ml penicillin/100 μg/ml streptomycin (GIBCO) was used as a medium. High K− buffer (129.8 mM KCl, 1.2 mM KH2PO4, 1.2 mM MgSO4.7H2O, 1.3 mM CaCl2. 2H2O, 25 mM HEPES, pH 7.4 with 1 M Tris) and the medium were mixed in equal amount to prepare Assay Buffer. The medium in each well was removed, and the test compound solution (final 1% DMSO) diluted with Assay Buffer was added thereto at 50 μl/well, and the mixture was left stand at room temperature for 30 to 60 min. For the solvent control and blank, Assay Buffer containing DMSO alone was added at 50 μl/well, and the mixture was left stand at room temperature for 30 to 60 min. In addition, uric acid solution (containing [14C]uric acid as a tracer) diluted with Assay Buffer was added to each well at 15 μl/well (final 300 μM uric acid), and the uptake reaction was performed at room temperature for 6 min. […]

## COc1ccc(-c2ncc([C@H]3CC[C@H](OC)CC3)cc2-c2ccc(C(=O)O)cc2)cc1
  IC50: 10 µM
